Results reported in patent publication US6420532.

By UniProt entry, the sequences of proteins in these tests, tags left out.
UniProt P49146, whole entry: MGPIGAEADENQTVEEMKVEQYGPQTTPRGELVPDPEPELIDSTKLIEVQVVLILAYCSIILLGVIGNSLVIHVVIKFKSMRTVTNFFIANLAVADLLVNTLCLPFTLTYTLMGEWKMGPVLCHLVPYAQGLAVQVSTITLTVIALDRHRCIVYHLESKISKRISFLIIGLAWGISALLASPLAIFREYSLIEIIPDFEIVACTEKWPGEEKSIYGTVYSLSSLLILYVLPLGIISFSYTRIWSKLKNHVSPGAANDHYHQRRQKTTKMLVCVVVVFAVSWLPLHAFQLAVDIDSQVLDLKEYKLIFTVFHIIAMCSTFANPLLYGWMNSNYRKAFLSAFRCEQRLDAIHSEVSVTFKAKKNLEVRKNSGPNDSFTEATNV

How the values were obtained:
[1] = target: human hippocampal Y2 receptor (clone CG-13) (human) (UniProt P49146); test: 125I-PYY displacement, COS-7 membranes, Ki from IC50
[2] = target: human hippocampal Y2 receptor (clone CG-13) (human) (UniProt P49146); test: 125I-PYY displacement binding assay (Table 9, binding column)
[3] = target: human hippocampal Y2 receptor (clone CG-13) (human) (UniProt P49146); test: 125I-PYY displacement, COS-7 membranes, Ki from IC50; remark: listed apart in the source

Row | Ki [1] [nM] | Ki [2] [nM] | Ki [3] [nM] | Substance
1 | 0.17 | 0.17 | – | PP, salmon (peptide)
2 | 0.74 | 0.74 | 0.69 | human NPY, P01303 29-64 (peptide; C-terminal amide; other documents disagree on this pair)
